PMC2725360 (Molecular cell, 2009)

Biological target: T1, NAE1-UBA3 (NEDD8 E1), wild type (human, UniProt Q13564 1-534; Q8TBC4 1-463)
T1 sequence (looked up) 1: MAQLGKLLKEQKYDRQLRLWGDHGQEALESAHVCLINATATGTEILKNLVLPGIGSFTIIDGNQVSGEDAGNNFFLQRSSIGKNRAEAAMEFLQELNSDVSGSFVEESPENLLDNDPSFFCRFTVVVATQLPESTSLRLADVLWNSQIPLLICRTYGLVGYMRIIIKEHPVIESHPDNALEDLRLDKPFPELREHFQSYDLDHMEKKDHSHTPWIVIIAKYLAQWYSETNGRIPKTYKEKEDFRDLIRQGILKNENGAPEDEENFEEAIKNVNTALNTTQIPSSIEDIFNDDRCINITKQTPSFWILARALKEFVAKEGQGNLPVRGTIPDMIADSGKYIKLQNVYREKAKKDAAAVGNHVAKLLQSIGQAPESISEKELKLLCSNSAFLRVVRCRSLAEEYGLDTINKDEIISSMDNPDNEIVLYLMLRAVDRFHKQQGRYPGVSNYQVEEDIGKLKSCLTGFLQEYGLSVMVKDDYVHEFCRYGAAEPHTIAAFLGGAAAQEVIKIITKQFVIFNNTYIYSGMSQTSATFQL
T1 sequence (looked up) 2: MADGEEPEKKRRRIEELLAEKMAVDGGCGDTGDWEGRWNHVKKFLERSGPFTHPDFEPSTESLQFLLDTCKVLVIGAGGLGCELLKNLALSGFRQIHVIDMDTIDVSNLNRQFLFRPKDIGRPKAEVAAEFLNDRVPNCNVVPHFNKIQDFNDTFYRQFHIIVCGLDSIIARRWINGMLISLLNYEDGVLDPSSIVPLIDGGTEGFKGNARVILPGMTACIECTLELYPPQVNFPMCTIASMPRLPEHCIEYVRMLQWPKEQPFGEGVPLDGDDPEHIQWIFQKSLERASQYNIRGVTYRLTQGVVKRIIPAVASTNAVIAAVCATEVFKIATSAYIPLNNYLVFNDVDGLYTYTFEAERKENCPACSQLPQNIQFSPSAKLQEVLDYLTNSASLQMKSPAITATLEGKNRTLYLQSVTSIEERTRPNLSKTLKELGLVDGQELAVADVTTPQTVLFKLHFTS
Assay: cell-based or functional assay

B1: UBE2F^core (domain or fragment, human)
chain: ATASDSTRRVSVRDKLLVKEVAELEANLPCTCKVHFPDPNKLHCFQLTVTPDEGYYQGGKFQFETEVPDAYNMVPPKVKCLTKIWHPNITETGEICLSLLREHSIDGTGWAPTRTLKDVVWGLNSLFTDLLNFDDPLNIEAAEHHLRDKEDFRNKVDDYIKRYAR
  Km of 32P-NEDD8 transfer from E1 to E2, against wild-type UBE2F: ~18 fold
